Data from publication PMC6303327 (2018).

B1: Rfa1 DNA-binding domain-A (DBD-A), residues 178-294 [S. cerevisiae] / Rfa3 DNA-binding domain-E (DBD-E), OB domain, residues 1-99 [modified: fluorescent label NT-495 (Monolith NT protein-labeling Kit Blue-Cys) on free cysteine residues; … (parent complex)
chain 1: SQKTRPIFAIEQLSPYQNVWTIKARVSYKGEIKTWHNQRGDGKLFNVNFLDTSGEIRATAFNDFATKFNEILQEGKVYYVSKAKLQPAKPQFTNLTHPYELNLDRDTVIEECFDESN
chain 2: MASETPRVDPTEISNVNAPVFRIIAQIKSQPTESQLILQSPTISSKNGSEVEMITLNNIRVSMNKTFEIDSWYEFVCRNNDDGELGFLILDAVLCKFKE

Variants of: B1
Test: microscale thermophoresis (MST); point at the highest DBD-A concentration, about 340 µM (read from x axis); parent: 130; read off a plot

response	Variant
~8 ‰ (ΔFnorm)	chain 2 L88D

Variants of: B1
Test: as above
Remark: another data set of the same source

response	Variant
~22 ‰ (ΔFnorm)	chain 2 R60E

Variants of: B1
Test: as above
Remark: another data set of the same source

response	Variant
~51 ‰ (ΔFnorm)	chain 2 R78E
